From patent EP2921486B1, “Compositions and methods for treating beta-amyloid related diseases” (American Life Science Pharmaceuticals, Inc., priority 2009, dated 2011)

Test system: Aβ(40) and Aβ(42)
Test: Brain, CSF and plasma Aβ ELISA after once-a-day oral gavage for one week (Example 9)
Type: in vivo, guinea pigs
Settings: guinea pig data
Description: Guinea Pigs. Guinea Pigs (Harley strain, average weight 400 g corresponding to animals about 6 weeks old) were obtained from Charles River (Wilmington, MA). The animals were given free access to standard chow and water before and during the experiment.
Gavage Formulation: Delivering a drug by gavage offers the advantage of accurate dosing but is traumatic and thus only suitable for relatively short dosing periods. Gavage delivery was used for the guinea pig work. E64d was resuspended in DMSO at indicated concentrations (see Figures, and below) and guinea pigs were gavaged daily using a feeding tube. Vehicle control animals were provided DMSO alone.
Guinea Pig Gavage Dosing: Guinea pigs were gavaged daily for one week. Guinea pigs were lightly anesthetized with isoflurane prior to gavaging. 250 µl of compound solution was gavaged daily per animal and animals were sacrificed 4 hrs after the last dosing.

CCOC(=O)[C@H]1O[C@@H]1C(=O)N[C@@H](CC(C)C)C(=O)NCCC(C)C (relative stereo) [AB-007, (2S,3S)-trans-epoxysuccinyl-L-leucyl-amido-3-methylbutane ethyl ester]
oral dose maximally effective at lowering brain Aβ and cathepsin B activity: 10 mg/kg/day
